The values that follow come from ChEMBL document CHEMBL4184302, “Virtual target screening reveals rosmarinic acid and salvianolic acid A inhibiting metallo- and serine-β-lactamases” (Bioorg Med Chem Lett, 2018).

Experiment [1] concerns Bacteria.
In experiment [2] the test system is Bacteria. This is another data set of the same source.

The Km is the concentration of substrate that gives half-maximal velocity.

Take `O=C(/C=C/c1ccc(O)c(O)c1)O[C@H](Cc1ccc(O)c(O)c1)C(=O)O` [ROSMARINIC ACID]: the Michaelis constant (Km) in experiment [1] turned out to be 37.4 µM. Also, the Ka in experiment [2] was found to be 9.85 ×10⁴ /M.
